According to patent US8119806B2, “Cicletanine derivatives” (Merck Sharp & Dohme Corp., priority 2008, dated 2012):

Tested on: isolated rabbit thoracic aorta preparations
Assay: Vessel relaxation in isolated rabbit thoracic aorta rings precontracted with noradrenaline
Details: read-out: Vessel Relaxation Data ED50; isolated rabbit aortic rings, noradrenaline 1 μM precontraction, functional endothelium

**Q.** How did the EC50 turn out when `O=C(O)[C@H]1C[C@H](O[N+](=O)[O-])[C@H](O[N+](=O)[O-])C1` was run?
**A.** Its EC50 is 5.26 µM.
